Experimental data: BindingDB's records for doi:10.1111/j.1476-5381.1988.tb11723.x (Ciba-Geigy, 1988)

Molecular target: Glutamate receptor ionotropic, NMDA 1 (Rattus norvegicus, UniProt P35439)

Ki: > 10 µM
Compound: O=C(O)c1cc(=O)c2ccccc2[nH]1 [4-hydroxyquinoline-2-carboxylic acid]
